{
  "source": "patent US9415030B2",
  "about": "“High-dose glycine as a treatment for obsessive-compulsive disorder and obsessive-compulsive spectrum disorders” (priority 2008, dated 2016)",
  "key": {"[1]": {"conditions": "glycine ~18-22 grams infused over 30-50 minutes; cited from earlier work"}, "[2]": {"conditions": "human, in vivo"}, "[3]": {"conditions": "human, in vivo", "description": "Hyperammonemia is seen in several abnormal conditions, e.g. inborn errors of metabolism that affect the urea cycle, small bowel syndrome, and others.", "remark": "listed apart in the source"}},
  "data": [
    {"substance": "glycine", "values": [
      {"measurement": "healthy volunteers with a more marked increase in plasma ammonia", "setting": "[1]", "value": 15, "unit": "%"},
      {"measurement": "healthy volunteers with no increase in plasma ammonia", "setting": "[1]", "value": 15, "unit": "%"},
      {"measurement": "healthy volunteers with only a slight increase in plasma ammonia", "setting": "[1]", "value": 70, "unit": "%"},
      {"measurement": "plasma ammonia concentrations in some individuals with marked increase", "setting": "[1]", "value": "100 to 120", "unit": "µM"},
      {"measurement": "free glycine peak in brain magnetic resonance spectrum", "setting": "[2]", "value": "clearly shows a peak centered at 3.5 ppm"},
      {"measurement": "ammonia concentration", "setting": "[3]", "value": 136, "unit": "µM"},
      {"measurement": "plasma ammonia", "setting": "[3]", "value": 118, "unit": "µM"},
      {"measurement": "plasma ammonia concentration", "setting": "[3]", "value": "118 to 136", "unit": "µM"},
      {"measurement": "plasma glycine", "setting": "[3]", "value": 1326, "unit": "µM"},
      {"measurement": "plasma glycine concentration", "setting": "[3]", "value": 2615, "unit": "µM"},
      {"measurement": "time of plasma ammonia peak after completion of glycine ingestion", "setting": "[3]", "value": "about 2 hours"}
    ]}
  ]
}
